# B1: Compound 117 (peptide)
# The chains behind the UniProt entries cited, without tags or fusion partners. Residues count along the entry.
# UniProt Q04609, 44-750 limits assumed: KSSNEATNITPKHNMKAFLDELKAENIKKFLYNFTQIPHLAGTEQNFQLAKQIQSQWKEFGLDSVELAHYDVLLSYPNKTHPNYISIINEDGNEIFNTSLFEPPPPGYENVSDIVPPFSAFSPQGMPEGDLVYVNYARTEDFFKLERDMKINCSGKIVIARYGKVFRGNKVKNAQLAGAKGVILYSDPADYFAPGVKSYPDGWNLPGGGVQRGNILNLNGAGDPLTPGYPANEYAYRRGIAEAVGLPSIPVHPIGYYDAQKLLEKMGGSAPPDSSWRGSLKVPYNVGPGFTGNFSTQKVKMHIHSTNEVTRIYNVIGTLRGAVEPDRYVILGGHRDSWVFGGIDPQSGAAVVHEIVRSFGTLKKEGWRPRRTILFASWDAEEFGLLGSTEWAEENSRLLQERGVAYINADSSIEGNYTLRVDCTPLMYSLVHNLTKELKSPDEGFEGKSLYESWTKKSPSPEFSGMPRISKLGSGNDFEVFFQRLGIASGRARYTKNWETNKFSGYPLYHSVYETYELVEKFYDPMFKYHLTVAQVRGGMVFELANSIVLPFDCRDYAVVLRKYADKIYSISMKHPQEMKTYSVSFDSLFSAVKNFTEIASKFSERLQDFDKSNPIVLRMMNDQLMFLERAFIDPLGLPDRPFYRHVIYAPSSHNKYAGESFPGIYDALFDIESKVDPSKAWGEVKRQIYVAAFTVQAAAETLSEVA
# peptide: YYSSEEGFGW
# modifications: Ac-Tyr-Tyr-Ser-Ser-Glu-Glu-Gly-Phe(4-COOH)-Gly-Trp joined to the Lys side chain of Glu-urea-Lys (by the synthesis in paragraph 443)
# B2: Compound 118 (peptide)
# peptide: EEEGFGW
# modifications: Ac-Glu-Glu-Glu-Gly-Phe(4-COOH)-Gly-Trp joined to the Lys side chain of Glu-urea-Lys (by the synthesis in paragraph 445)
# Biological target: Recombinant Human PSMA/FOLH1 Protein, CF (rnd systems) (human, UniProt Q04609 44-750)
# Test: cell-based or functional assay
row,Binder,"IC50 (nM), inhibition of NAAG hydrolysis by PSMA (Amplex Red)"
1,B1,0.293 nM
2,B2,0.312 nM
